Assay results taken from EP1903056A2, “HLA-A1, -A2 -A3, -A24, -B7, and -B44 tumor associated antigen peptides and compositions” (priority 2002, dated 2004).

Key:
B*4002 (B61) = B*4002 (B61) (Homo sapiens, UniProt P01889, A65T/A93T/A95T/D138N/D201E/D98Y/E176V/E204Q/E69K/K202T/N87E/Q56L/Q94N/R180L/S48T/Y33H/Y91S); assay: B44 supertype peptide binding, B*4002; conditions: read-out: B* 4002
B*4402 = B*4402 (Homo sapiens, UniProt P01889, A223V/A65T/A93T/A95T/D201E/D98Y/E176V/E187L/E204Q/E69K/G107R/H137Y/K202T/L105A/L119I/N104T/N87E/Q56L/Q94N/R106L/R155S/R180D/S101N/S121R/S35A/S48T/T118I/V36M/W191S/Y140D/Y91S); assay: B44 supertype peptide binding, B*4402; conditions: read-out: B* 4402
[1] = tested on: B44 supertype (B*1801, B*4001, B*4002, B*4402, B*4403, B*4501); assay: B44 supertype cross-binding (degeneracy, number of alleles bound); set-up: species or system human; conditions: number of the six B44 alleles bound
B*4501 = B*4501 (Homo sapiens, UniProt P01889, A329T/A65T/A93T/A95T/C349S/D138N/D201E/D98Y/E176V/E187L/E204Q/E69K/H137Y/K202T/L119W/N87E/Q56L/Q94N/R155S/R180D/S121R/S35A/S48T/V127L/V306I/V36M/W191S/Y140L/Y33H/Y91S); assay: B44 supertype peptide binding, B*4501; conditions: read-out: B* 4501
B*4001(B60) = B*4001(B60) (Homo sapiens, UniProt P01889, A65T/A93T/A95T/D138N/D98Y/E176V/E69K/N87E/Q56L/Q94N/R180L/S121R/S35A/S48T/T167S/V36M/W171L/Y33H/Y91S); assay: B44 supertype peptide binding, B*4001; conditions: read-out: B* 4001
B*1801 = B*1801 (Homo sapiens, UniProt P01889, A329T/A93T/A95T/C349S/D201E/D54G/D98Y/E176V/E187T/E204Q/E69T/K202T/Q94N/R155S/R180L/S121R/V306I/Y140S/Y195H/Y33H/Y91S); assay: B44 supertype peptide binding, B*1801; conditions: Table 29: MAGE2-derived B44 peptides
[2] = Table 28: p53-derived B44 peptides
[3] = Table 29: MAGE2-derived B44 peptides

SMILES | IC50 (B*4002 (B61); [2]) | IC50 (B*4402; [2]) | Degeneracy [1, 2] | IC50 (B*4501; [2]) | IC50 (B*4001(B60); [2]) | IC50 (B*4402; [3]) | Degeneracy [1, 3] | IC50 (B*4501; [3]) | IC50 (B*1801) | IC50 (B*4001(B60); [3]) | IC50 (B*4002 (B61); [3])
CC(C)C[C@H](NC(=O)[C@H](CCC(=O)O)NC(=O)[C@@H](N)CC(C)C)C(=O)N[C@@H](CCCCN)C(=O)N[C@@H](CC(=O)O)C(=O)N[C@@H](C)C(=O)N[C@@H](CCC(N)=O)C(=O)N[C@@H](C)C(=O)NCC(=O)O [compound 620] | 3660 nM | 5130 nM | 2 | 1990 nM | 18700 nM |  |  |  |  |  | 
CSCC[C@H](NC(=O)[C@H](CCC(=O)O)NC(=O)[C@H](C)N)C(=O)N[C@@H](CC(C)C)C(=O)N[C@@H](CCC(=O)O)C(=O)N[C@@H](CO)C(=O)N[C@H](C(=O)N[C@@H](CC(C)C)C(=O)O)C(C)C [compound 658] |  |  |  |  |  | 327 nM | 5 | 302 nM | 968 nM |  | 
CC(C)C[C@H](NC(=O)[C@H](C)NC(=O)[C@H](CCC(=O)O)NC(=O)CNC(=O)[C@H](CCCNC(=N)N)NC(=O)[C@H](C)NC(=O)[C@H](CCC(=O)O)NC(=O)[C@@H](N)CC(C)C)C(=O)O [compound 668] |  |  |  |  |  | > 10000 nM | 4 | > 10000 nM | 163 nM | 99 nM | 
CC(C)C[C@H](NC(=O)CNC(=O)[C@H](CC(C)C)NC(=O)[C@H](C)NC(=O)[C@H](CCC(=O)O)NC(=O)CNC(=O)[C@H](CCCNC(=N)N)NC(=O)[C@H](C)NC(=O)[C@H](CCC(=O)O)NC(=O)[C@@H](N)CC(C)C)C(=O)O [compound 669] |  |  |  |  |  | 2280 nM | 4 | 3050 nM |  | 184 nM | 277 nM
CC(C)C[C@H](NC(=O)CNC(=O)[C@H](CC(C)C)NC(=O)[C@H](C)NC(=O)[C@H](CCC(=O)O)NC(=O)CNC(=O)[C@H](CCCNC(=N)N)NC(=O)[C@H](C)NC(=O)[C@H](CCC(=O)O)NC(=O)[C@@H](N)CC(C)C)C(=O)N[C@H](C(=O)O)C(C)C [compound 670] |  |  |  |  |  | > 10000 nM | 4 | 1910 nM | 158 nM | 198 nM | 
CC[C@H](C)[C@H](NC(=O)[C@@H]1CCCN1C(=O)[C@@H](NC(=O)[C@@H](NC(=O)[C@H](CCC(=O)O)NC(=O)[C@@H](N)C(C)C)C(C)C)C(C)C)C(=O)N[C@@H](CO)C(=O)N[C@@H](Cc1c[nH]cn1)C(=O)N[C@@H](CC(C)C)C(=O)O [compound 676] |  |  |  |  |  | 9080 nM | 4 | 13800 nM | 149 nM |  | 
CC[C@H](C)[C@H](NC(=O)[C@H](Cc1ccc(O)cc1)NC(=O)[C@H](CC(C)C)NC(=O)[C@H](Cc1c[nH]cn1)NC(=O)[C@H](CO)NC(=O)[C@@H](NC(=O)[C@@H]1CCCN1C(=O)[C@@H](NC(=O)[C@@H](NC(=O)[C@H](CCC(=O)O)NC(=O)[C@@H](N)C(C)C)C(C)C)C(C)C)[C@@H](C)CC)C(=O)N[C@@H](CC(C)C)C(=O)O [compound 678] |  |  |  |  |  | 935 nM | 4 |  | 191 nM |  | 
CC(C)C[C@H](NC(=O)CNC(=O)[C@H](CC(C)C)NC(=O)[C@H](C)NC(=O)[C@H](CCC(=O)O)NC(=O)CN)C(=O)N[C@H](C(=O)NCC(=O)N[C@@H](C)C(=O)O)C(C)C [compound 684] |  |  |  |  |  | 6130 nM | 3 |  | 9530 nM |  | 
CC[C@H](C)[C@H](NC(=O)[C@H](CCCCN)NC(=O)[C@H](CCC(=O)O)NC(=O)[C@@H](N)CCC(=O)O)C(=O)N[C@@H](Cc1c[nH]c2ccccc12)C(=O)N[C@@H](CCC(=O)O)C(=O)N[C@@H](CCC(=O)O)C(=O)N[C@@H](CC(C)C)C(=O)O [compound 701] |  |  |  |  |  | 12400 nM | 2 |  | 753 nM | 9080 nM | 
CSCC[C@H](NC(=O)[C@H](CO)NC(=O)[C@H](CC(C)C)NC(=O)[C@H](CCC(=O)O)NC(=O)[C@H](CCC(=O)O)NC(=O)[C@@H](N)Cc1c[nH]c2ccccc12)C(=O)N[C@@H](CC(C)C)C(=O)O [compound 716] |  |  |  |  |  | > 10000 nM | 0 | > 10000 nM |  | 781 nM | 740 nM

Read-outs that look alike come from different tables or passages of the source.
